Earlier results as cited in US10689367B2, “Triazole pyridyl compounds as agonists of the APJ receptor” (AMGEN INC., priority 2016, dated 2020).

Protein sequences, listed by entry. Tags and fused reporters are not part of them. Lines headed by an entry give the natural chain unless they say otherwise; changes in a name come on top.
UniProt P35414: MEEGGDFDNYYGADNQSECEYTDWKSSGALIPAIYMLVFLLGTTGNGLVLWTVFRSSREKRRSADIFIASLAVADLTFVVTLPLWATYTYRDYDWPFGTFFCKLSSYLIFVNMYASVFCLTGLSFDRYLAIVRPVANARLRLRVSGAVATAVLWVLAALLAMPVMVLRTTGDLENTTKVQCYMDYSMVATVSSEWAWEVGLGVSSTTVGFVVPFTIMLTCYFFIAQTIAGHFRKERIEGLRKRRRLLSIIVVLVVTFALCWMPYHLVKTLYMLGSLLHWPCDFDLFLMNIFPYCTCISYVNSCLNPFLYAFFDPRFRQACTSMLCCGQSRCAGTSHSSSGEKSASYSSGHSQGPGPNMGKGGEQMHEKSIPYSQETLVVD

Biological target: APJ receptor (Homo sapiens (Human), UniProt P35414)
Conditions: higher than apelin-36; cited from earlier work

Apelin-13
in vitro affinity to the APJ receptor relative to apelin-36: ~3.5 fold
